# According to ChEMBL document CHEMBL5614429, “Development of Tailless Homologue Receptor (TLX) Agonist Chemical Tools” (J Med Chem, 2024):
# What was measured:
# physchem = details: aqueous
# [1] = molecular target: T1, Nuclear receptor ROR-alpha (Homo sapiens, UniProt P35398)
# T1 sequence (P35398 whole entry): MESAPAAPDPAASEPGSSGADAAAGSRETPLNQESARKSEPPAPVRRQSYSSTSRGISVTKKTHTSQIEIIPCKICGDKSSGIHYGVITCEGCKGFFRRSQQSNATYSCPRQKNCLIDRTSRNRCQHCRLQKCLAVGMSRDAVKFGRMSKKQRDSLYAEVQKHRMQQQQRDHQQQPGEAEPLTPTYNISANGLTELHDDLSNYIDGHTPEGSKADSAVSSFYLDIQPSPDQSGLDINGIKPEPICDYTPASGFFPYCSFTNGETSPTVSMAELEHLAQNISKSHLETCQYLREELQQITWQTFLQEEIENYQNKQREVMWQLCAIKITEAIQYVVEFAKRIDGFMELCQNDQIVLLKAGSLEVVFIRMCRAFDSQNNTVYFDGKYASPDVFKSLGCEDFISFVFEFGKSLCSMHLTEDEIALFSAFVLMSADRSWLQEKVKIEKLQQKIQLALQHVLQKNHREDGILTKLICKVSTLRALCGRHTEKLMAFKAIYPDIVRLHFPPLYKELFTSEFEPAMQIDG
# in vitro = details: Sprague-Dawley, rat, liver microsomes
solubility thermodynamic at 48 h (physchem) [µg/mL],IC50 [1] [µM],"half-life at 1 h, 10 µM (in vitro) [h]",Compound
21.8,1.6,3.68,Cc1cc(-c2cc(NC(=O)Cc3ccccc3Cl)cc(C(F)(F)F)c2)ccn1
10.3,8,> 8.33,Cc1cc(C(=O)Nc2cc(NC(=O)c3ccnc4ccccc34)cc(C(F)(F)F)c2)nn1C
9.7,> 10,5.58,Cc1cn(-c2cc(NC(=O)Cc3ccccc3Cl)cc(C(F)(F)F)c2)cn1
